This note sets out measurements from patent US11389415B2, “Methods of regulating cannabinoid receptor activity-related disorders and diseases” (The United States of America as represented by the …, priority 2012, dated 2022).

Amino acid sequences for entries named in this document (tags omitted). A change or cut given only in a name is not applied to a line headed by its entry.
UniProt Q9Y2T6: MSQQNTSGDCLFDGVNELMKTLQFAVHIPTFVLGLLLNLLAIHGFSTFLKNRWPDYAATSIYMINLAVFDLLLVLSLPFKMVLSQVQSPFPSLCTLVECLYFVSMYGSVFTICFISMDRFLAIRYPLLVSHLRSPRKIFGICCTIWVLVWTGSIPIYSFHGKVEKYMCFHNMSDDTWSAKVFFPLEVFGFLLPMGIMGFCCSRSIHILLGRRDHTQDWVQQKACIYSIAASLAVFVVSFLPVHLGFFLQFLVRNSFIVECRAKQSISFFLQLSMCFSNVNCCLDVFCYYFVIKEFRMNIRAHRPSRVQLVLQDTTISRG

The assay addresses GPR55 (Homo sapiens, UniProt Q9Y2T6). Kind of assay: Cellular uptake of TocriFluor T1117 in HepG2 cells. Further details: host or cells: HepG2 hepatocarcinoma cells. The assay is classed as cell-based.

Take `Cc1c(C(=O)NN2CCCCC2)nn(-c2ccc(Cl)cc2Cl)c1-c1ccc(I)cc1` [AM251, 1-(2,4-dichlorophenyl)-5-(4-iodophenyl)-4-methyl-N-(1-piperidyl)pyrazole-3-carboxamide]: the “effect of pretreatment on T1117 incorporation” value (HepG2, AM630 1 μM, WIN 55,212-2 1 μM (1 hour), AM251 1 μM (30 minutes)) is recorded as “neither inhibited nor enhanced constitutive T1117 incorporation”. In addition, the “delay in the cellular accumulation of T1117” value (simultaneous addition of 100× molar excess of unlabeled AM251, T1117 100 nM) came to 18 min.
